These results are taken from patent US10512644B2, “Oligomer-opioid agonist conjugates” (Nektar Therapeutics, priority 2007, dated 2019).

Amino acid sequences for entries named in this document (tags omitted).
UniProt P41143, whole entry, looked up: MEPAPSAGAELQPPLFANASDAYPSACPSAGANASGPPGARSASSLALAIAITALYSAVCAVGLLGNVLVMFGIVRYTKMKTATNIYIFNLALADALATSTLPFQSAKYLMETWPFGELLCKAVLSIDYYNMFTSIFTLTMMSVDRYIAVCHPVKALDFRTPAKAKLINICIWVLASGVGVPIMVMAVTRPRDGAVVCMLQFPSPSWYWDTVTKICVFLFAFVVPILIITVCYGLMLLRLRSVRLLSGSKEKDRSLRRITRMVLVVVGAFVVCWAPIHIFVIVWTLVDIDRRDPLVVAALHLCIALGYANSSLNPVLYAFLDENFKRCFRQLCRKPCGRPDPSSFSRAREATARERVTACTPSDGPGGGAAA

Series [1] can be described thus: Plasma pharmacokinetics after intravenous dosing in male Sprague-Dawley rats. The settings on record: IV 1 mg/kg.
Series [2] deals with T1, mu opioid receptor (Homo sapiens (Human), UniProt P35372). The series is classed as biochemical. Conditions: read-out: Mu Antagonist IC50, GTP-γS Binding.
Series [3] addresses T2, recombinant human delta opioid receptor (Homo sapiens (Human), UniProt P41143). Nature of the series: GTPγS binding assay, delta opioid receptor, CHO cell membranes. The series is classed as biochemical. Conditions: antagonist mode vs 0.1 μM DPDPE; read-out: Delta IC50, GTP-γS Binding.
The target in series [4] is T1, mu opioid receptor. The series is classed as binding. The settings on record: read-out: Ki at MU Receptors.
Series [5] addresses T3, recombinant human kappa opioid receptor (Homo sapiens (Human), UniProt P41145). The series is classed as biochemical. The settings on record: read-out: Kappa Agonist EC50, GTP-γS Binding.
Series [6] addresses T2, recombinant human delta opioid receptor. Nature of the series: Radioligand competition binding in whole CHO cells, delta opioid receptor (3H DPDPE). The settings on record: 0.5 nM 3H DPDPE, read-out: Ki at DELTA Receptors. (In general: In a radioligand displacement assay an active substance lowers the binding of a labelled ligand.)
The target in series [7] is T3, recombinant human kappa opioid receptor. Type of series: binding. The settings on record: read-out: Ki at KAPPA receptors.

As for α-6-mPEG6-O-codeine, in series [1], the “clearance, fold decrease vs parent” value was 4 fold and the “mean volume of distribution (steady state), fold decrease vs parent” value is 4 fold.
As to 6-O-mPEG9-nalbuphine, the IC50 stood at 1010 nM in series [2] and 8970 nM in series [3]. Further, the Ki in series [4] was found to be 122 nM; in series [6], 158 nM; in series [7] it was 186 nM. Moreover, the EC50 in series [5] amounted to 485 nM.

The EC50 is the concentration that produces a half-maximal response.
